Measured values published in patent US9029401B2 (The Regents of the University of California, priority 2011, dated 2015).

Molecular target: Raf-1 (Homo sapiens (Human), UniProt P04049)
Test: In vitro kinase inhibition assay (ADP-Glo), Raf-1
Assay type: biochemical
Settings: 10 nM enzyme, 1 μM MEK1, 10 μM ATP, 22° C., 2 hours

Work on CC(C)(C)OC(=O)c1cc(O[C@H]2CC[C@H](NC(=O)Nc3ccc(Cl)c(C(F)(F)F)c3)CC2)ccn1 [Compound 2280, trans-4-{4-[3-(4-Chloro-3-trifluoromethyl-phenyl)-ureido]-cyclohexyloxy}-pyridine-2-carboxylic acid tert-butyl ester] yielded an IC50 of 550 ± 50 nM.
